Drawing on US20210393745A1, “OLIGOMER […] INSULIN-FC CONJUGATES AND THEIR MEDICAL USE” (published 2021), this text covers Kd for one molecule.

The experiment concerns the target hFcRn ectodomain (human, UniProt P55899). Description: SPR (Biacore 4000), Fc immobilised by amine coupling, hFcRn ectodomain as analyte, pH 6.0, 25 C, steady-state fit.

B1: WT hIgG4 Fc(227-447) (other)
chain: PSCPAPEFLGGPSVFLFPPKPKDTLMISRTPEVTCVVVDVSQEDPEVQFNWYVDGVEVHNAKTKPREEQFNSTYRVVSVLTVLHQDWLNGKEYKCKVSNKGLPSSIEKTISKAKGQPREPQVYTLPPSQEEMTKNQVSLTCLVKGFYPSDIAVEWESNGQPENNYKTTPPVLDSDGSFFLYSRLTVDKSRWQEGNVFSCSVMHEALHNHYTQKSLSLSLGK
modifications: glycosylated (produced in HEK293 cells)
The molecule B1 displayed a Kd of 1500 nM.
